Here are results for one compound from ChEMBL document CHEMBL4417631, “Oral peptide inhibitors of interleukin-23 receptor and their use to treat inflammatory bowel diseases” (2017).

Assay [1] concerns Rattus norvegicus. Nature of the assay: Anti-colitis activity in Sprague-Dawley rat model of DSS-induced colitis assessed as reduction in disease activity index at 30 mg/kg, ip dosed 3 times per day. It counts as functional.
The subject of assay [2] is Rattus norvegicus. Nature of the assay: Anti-colitis activity in Sprague-Dawley rat model of DSS-induced colitis assessed as reduction in disease activity index at 20 mg/kg, po dosed 3 times per day. It counts as functional.

On to `COc1ccc(C[C@H](NC(=O)[C@@H]2CSCC[C@H](NC(C)=O)C(=O)N[C@@H](CCC(N)=O)C(=O)N[C@@H]([C@@H](C)O)C(=O)N[C@@H](Cc3c[nH]c4ccccc34)C(=O)N[C@@H](CCC(N)=O)C(=O)N2)C(=O)N[C@@H](Cc2ccc3ccccc3c2)C(=O)N[C@@](C)(CCCCN)C(=O)N[C@@H](CCC(=O)O)C(=O)N[C@@H](CC(N)=O)C(=O)NCC(N)=O)cc1`, for which the Activity_index is 0.83 with Rattus norvegicus [1] and 0.56 with Rattus norvegicus [2].
